Target: T1, COX-2 (Mus musculus, UniProt Q05769)
T1 construct: host or cells: RAW 264.7 cells, pre-treated with aspirin, then induced with interferon and LPS
T1 sequence (Q05769 18-604): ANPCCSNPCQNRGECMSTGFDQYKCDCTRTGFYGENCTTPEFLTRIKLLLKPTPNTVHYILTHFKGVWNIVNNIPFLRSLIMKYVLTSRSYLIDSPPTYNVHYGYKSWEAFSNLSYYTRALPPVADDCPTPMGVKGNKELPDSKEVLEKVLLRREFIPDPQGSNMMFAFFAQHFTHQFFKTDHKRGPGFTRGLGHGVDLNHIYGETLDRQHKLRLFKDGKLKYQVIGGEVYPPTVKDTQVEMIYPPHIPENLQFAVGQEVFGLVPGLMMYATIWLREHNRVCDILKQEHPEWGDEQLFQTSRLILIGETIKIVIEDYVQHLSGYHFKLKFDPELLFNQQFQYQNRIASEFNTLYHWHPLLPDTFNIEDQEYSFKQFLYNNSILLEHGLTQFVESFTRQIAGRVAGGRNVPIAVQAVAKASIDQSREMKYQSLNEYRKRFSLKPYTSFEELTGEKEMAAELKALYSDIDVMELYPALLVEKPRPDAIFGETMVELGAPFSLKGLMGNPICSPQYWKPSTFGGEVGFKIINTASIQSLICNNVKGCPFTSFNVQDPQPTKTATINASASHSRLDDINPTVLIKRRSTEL
Test: Assay for the COX-2 inhibitory activity using Raw 264.7 cell line (PGE2 inhibition)
Type: cell-based
Details: RAW264.7; test compound 30 nM; RAW 264.7 cells; aspirin pre-treated, interferon + LPS 18 hours; PGE2 by EIA; read-out: Cyclooxygenase (COX) Inhibition (%) COX-2 (30 nM)
Description: Each well was treated with 250 μM of aspirin and incubated at 37° C. for 2 hours. After the culture media were replaced with new culture media, the new culture media were treated with a test compound (30 nM) and incubated for 30 minutes. Then, each well was treated with interferon ? (100 units/ml) and lipopolysaccharide (LPS, 100 ng/ml) and incubated for 18 hours. The culture media were transferred to other test tubes. The concentration of PGE2 was quantified by means of the EIA kit (Cayman Chemicals).
The percentages of the COX inhibition were calculated according to the following equation: % Inhibition=(concentration of PGE2 in test compound-untreated sample−concentration of PGE2 in test compound-treated sample)/(concentration of PGE2 in test compound-untreated sample)×100

`Cc1onc(-c2ccccc2)c1-c1ccc(S(N)(=O)=O)cc1` [Reference (Valdecoxib), Valdecoxib, reference compound] showed an inhibition at 0.03 µM of 19%.

Source: patent US7781592B2, “Thione derivative, method for the preparation thereof, and pharmaceutical composition containing the same” (CJ Cheiljedang Corporation, priority 2003, dated 2010)
